Measurements reported in patent US20060136140A1, “Method for identification and functional characterization of agents which modulate ion channel activity” (priority 2004, published 2006).

Protein sequences, listed by entry. Tags and fused reporters are not part of them. Lines headed by an entry give the natural chain unless they say otherwise; changes in a name come on top.
UniProt Q12809: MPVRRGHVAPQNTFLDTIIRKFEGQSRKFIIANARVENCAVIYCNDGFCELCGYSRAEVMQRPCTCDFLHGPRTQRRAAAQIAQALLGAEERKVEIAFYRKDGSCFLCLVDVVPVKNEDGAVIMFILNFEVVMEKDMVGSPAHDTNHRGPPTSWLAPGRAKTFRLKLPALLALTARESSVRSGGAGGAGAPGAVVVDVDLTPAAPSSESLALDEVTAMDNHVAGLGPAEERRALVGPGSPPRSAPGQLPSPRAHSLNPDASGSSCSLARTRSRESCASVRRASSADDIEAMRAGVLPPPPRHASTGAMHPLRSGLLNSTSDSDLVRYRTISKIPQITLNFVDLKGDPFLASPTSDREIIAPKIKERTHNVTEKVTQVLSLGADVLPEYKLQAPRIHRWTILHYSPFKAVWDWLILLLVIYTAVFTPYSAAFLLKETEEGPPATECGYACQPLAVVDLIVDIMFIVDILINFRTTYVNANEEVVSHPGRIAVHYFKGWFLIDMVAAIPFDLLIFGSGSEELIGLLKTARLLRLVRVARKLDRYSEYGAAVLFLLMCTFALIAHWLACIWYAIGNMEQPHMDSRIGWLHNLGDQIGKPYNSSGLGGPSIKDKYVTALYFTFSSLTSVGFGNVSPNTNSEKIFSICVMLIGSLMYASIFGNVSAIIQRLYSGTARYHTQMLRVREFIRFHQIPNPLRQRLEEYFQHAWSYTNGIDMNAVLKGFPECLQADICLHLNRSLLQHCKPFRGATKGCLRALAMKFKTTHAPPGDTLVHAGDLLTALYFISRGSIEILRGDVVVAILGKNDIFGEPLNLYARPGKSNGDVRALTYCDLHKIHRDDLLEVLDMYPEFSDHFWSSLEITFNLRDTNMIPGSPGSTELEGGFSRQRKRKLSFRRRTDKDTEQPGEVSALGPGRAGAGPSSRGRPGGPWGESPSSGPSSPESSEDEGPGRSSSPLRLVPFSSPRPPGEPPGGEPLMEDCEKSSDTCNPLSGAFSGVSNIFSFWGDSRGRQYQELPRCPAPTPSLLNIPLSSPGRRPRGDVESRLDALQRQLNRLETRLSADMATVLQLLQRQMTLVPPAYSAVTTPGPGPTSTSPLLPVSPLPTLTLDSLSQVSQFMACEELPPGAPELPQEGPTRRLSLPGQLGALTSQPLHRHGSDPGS

Experiments:
HERG protein = HERG protein (Homo sapiens, UniProt Q12809)
HERG K+ channel [1] = target: T1, HERG K+ channel (Homo sapiens, UniProt Q12809)
HERG K+ channel [2] = target: T1, HERG K+ channel; remark: listed apart in the source

SMILES: COc1cc(N)c(Cl)cc1C(=O)NC1CCN(CCCOc2ccc(F)cc2)CC1OC (stereo not drawn) [cisapride, Cisapride]
- affinity for the [125I]-BeKm-1 site (HERG protein): low affinity
- inhibition of HERG channel (Rb+ efflux), dose response (HERG K+ channel [1]): partial block
- functional responses (HERG K+ channel [2]): 90˜100%
